Patent US20200003760A1, “IN-VITRO METHODS FOR CLASSIFYING DRUGS ACCORDING TO THEIR POTENTIAL TO CAUSE LIVER CELL INJURY” (Board of Trustees of Michigan State University, priority 2018, published 2020)

What was measured:
[1] = Logistic regression classification model: probability that a drug is associated with IDILI; parameters: species or system human; settings: covariates Deltadiff, EC50 VEH, EC50 TNF, Delta VEH, Cmax, optimal cutoff 0.46
HepG2 cells = experiment: Drug/cytokine-induced cytotoxicity (% LDH release) concentration-response in HepG2 cells

Compound	Estimated probability [1]	cytotoxic interaction of drug with TNF (HepG2 cells; HepG2, 24 h, TNF 10 ng/ml)	cytotoxicity of drug on its own (LDH release) (HepG2 cells; HepG2, 24 h, absence of cytokines)	TNF change (HepG2 cells; categorical, D10TNF − D10VEH)
O=C(O)Cc1ccccc1Nc1c(Cl)cccc1Cl [Diclofenac]	0.8578	–	–	–
CC[C@H]1OC(=O)[C@H](C)C(=O)[C@H](C)[C@@H](O[C@@H]2O[C@H](C)C[C@H](N(C)C)[C@H]2O)[C@](C)(OC)C[C@@H](C)C(=O)[C@H](C)[C@H]2N(CCCCn3cnc(-c4cccnc4)c3)C(=O)O[C@]12C [Telithromycin]	0.6685	–	–	–
COc1ccc2cc([C@H](C)C(=O)O)ccc2c1 [Naproxen]	–	TNF significantly enhanced the cytotoxicity	statistically significant increase in LDH release	0
